Test: Foam height measurements, Ross Miles procedure
Type: physicochemical
Settings: 50° C., 0.05% (w/w) surfactant solution
Protocol: Foam height measurements were performed according to the standard Ross Miles procedure. […] The glucosidised products are compared to the corresponding unglucosidised quaternary ammonium compounds.

Question: Which results are given for Tallowamine ethoxylate?
Answer: Foam height (mm) after 5 min (after 5 minutes): 5 mm; Foam height (mm) after 0 min (immediately): 95 mm

Reference: patent US6881706B1, “Use of a quaternary ammonium glycoside surfactant as an adjuvant for fertilizers or pesticides” (Akzo Nobel N.V., priority 1999, dated 2005)
